For orientation: half-life means the time needed for the level to fall by half in the phase considered.

For data set [1] the following is noted: cited from earlier work; for half-life: in the body / blood / plasma.
A short description of data set [2]: Longer-term obesity model in HFD-fed mice. The conditions noted are these: tail vein dosing Day 0 to Day 18. Here is the method:
Mice (Male C57BL/6) were of approximately 13 weeks of age were housed 4 mice per cage. Following 2 weeks of acclimatation, mice were introduced to 60% kcal HFD (Research Diets D12492). Cages were changed once, then changed once a week. Weekly body weights and non-fasted blood glucose were collected.
Mice were injected by tail vein with vehicle or the drugs on Day 0, Day 4, Day 7, Day 10, Day 14, and Day 18. Body weights were measured every 2 days. Change in body weight was calculated and plotted.
Cumulative food intake was measured between day 0 and 3, between day 4 and 7, between day 7 and day 11, and between day 11 and day 14, and represented as average daily food intake. For food consumption, remaining food was weighed on days 3, 8, and 15, and subtracted from the starting weight. This value was then normalized to the number of mice in the cage, and the number of days the mice had access to the food prior to weighing.
Blood glucose levels were measured on Days 0, 1, 10 and 15 and plotted.
On day 19 during terminal necropsy, liver and subcutaneous white adipose tissue were recovered weighed from treated animals.
To further analyze the changes in liver, histopathological analysis was conducted. Briefly, the liver tissue was stained with hematoxylin and eosin (H&E) and evaluated using standard techniques.

With “Glucose-dependent insulinotropic polypeptide [GlP]”, the half-life in data set [1] was 2 to 5 min. In addition, the half-life in circulation in data set [1] (in vivo) is 2 to 5 min.

Regarding insulin, the half-life in data set [1] is 2 to 5 min.

On to tirzepatide [reference compound], for which the “tolerability, clinical observations” value in data set [2] is “moribund, lethargic, scruffy, and consumed significantly less food and water immediately post dose”.
